From ChEMBL document CHEMBL3352222, “2-Hexylthio-β,γ-CH2-ATP is an effective and selective NTPDase2 inhibitor” (J Med Chem, 2014)

Assay: Stability assessed as human NTPDase4-mediated compound hydrolysis
Details: read-out: Drug degradation

metabolised: 3%
Compound: CCCCCCSc1nc(N)c2ncn([C@@H]3O[C@H](COP(=O)(O)OP(=O)(O)CP(=O)(O)O)[C@@H](O)[C@H]3O)c2n1
